Measured values from patent US6774109B2, “Inhibition of amylin release” (Societe de Conseils de Recherches et d'Applications …, priority 1995, dated 2004).
pKi: −log10 of the molar value.

Molecular target: T1, rat SSTR-5 (Rattus norvegicus, UniProt P30938)
T1 construct: Crude membranes were prepared by homogenization of rat olfactory bulb cells; tissue Zivic-Miller Laboratory, Inc; host or cells: rat olfactory bulb
T1 sequence (P30938 1-363): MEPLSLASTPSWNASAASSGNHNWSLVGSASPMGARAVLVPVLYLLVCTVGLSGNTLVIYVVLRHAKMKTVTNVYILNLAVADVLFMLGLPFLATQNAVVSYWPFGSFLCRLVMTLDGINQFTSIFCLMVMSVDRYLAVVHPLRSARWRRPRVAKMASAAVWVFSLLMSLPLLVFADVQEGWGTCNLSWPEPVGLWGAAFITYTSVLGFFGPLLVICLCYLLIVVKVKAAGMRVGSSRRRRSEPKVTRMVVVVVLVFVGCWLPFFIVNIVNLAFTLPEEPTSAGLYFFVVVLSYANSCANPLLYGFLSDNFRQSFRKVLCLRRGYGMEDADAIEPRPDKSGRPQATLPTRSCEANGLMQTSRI
Assay: Rat SSTR-5 binding assay ([125I-Tyr11]somatostatin-14, rat olfactory bulb membranes)
Conditions: read-out: Ki SSTR-5, radioligand [125I-Tyr11]somatostatin-14 0.05 nM
Protocol: Crude membranes were prepared by homogenization of rat olfactory bulb cells (Zivic-Miller Laboratory, Inc., Zellenople, Pa.) in 20 ml of ice-cold 50 mM Tris-HCl with a POLYTRON homogenizer (setting 6, 15 sec). Buffer was added to obtain a final volume of 40 ml, and the homogenate was centrifuged in a Sorval SS-34 rotor at 39,000 g for 10 min at 0-4° C. The resulting supernatant was decanted and discarded. The pellet was rehomogenized in ice-cold buffer, diluted, and centrifuged as before. The final pellet was resuspended in the 10 mM Tris HCl and held on ice for the receptor binding assay.
The final assay volume was 0.3 ml. The incubations were terminated by rapid filtration through GF/C filters (pre-soaked in 0.3% polyethylenimine for 30 min) using a Brandel filtration manifold. Each tube and filter were then washed three times with 5 ml aliquots of ice-cold buffer.

## Somatostatin-14 [reference compound]
  pKi: 9.33
